Values quoted from earlier work as cited in patent EP1190712A1, “Oral once daily tramadol beads composition” (SMB Technology, priority 2000, dated 2002).

Conditions: human, in vivo

## COc1cccc(C2(O)CCCCC2CN(C)C)c1 (stereo not shown) [Tramadol]
  elimination half-life: 4 to 6 h
